These results are taken from patent US7737182B2, “Pharmaceuticals for xerosis” (Taisho Pharmaceutical Co., Ltd., priority 2001, dated 2010).

Sequences of proteins named here, by UniProt entry; tags and fusion partners are left off.
UniProt P21731, whole entry: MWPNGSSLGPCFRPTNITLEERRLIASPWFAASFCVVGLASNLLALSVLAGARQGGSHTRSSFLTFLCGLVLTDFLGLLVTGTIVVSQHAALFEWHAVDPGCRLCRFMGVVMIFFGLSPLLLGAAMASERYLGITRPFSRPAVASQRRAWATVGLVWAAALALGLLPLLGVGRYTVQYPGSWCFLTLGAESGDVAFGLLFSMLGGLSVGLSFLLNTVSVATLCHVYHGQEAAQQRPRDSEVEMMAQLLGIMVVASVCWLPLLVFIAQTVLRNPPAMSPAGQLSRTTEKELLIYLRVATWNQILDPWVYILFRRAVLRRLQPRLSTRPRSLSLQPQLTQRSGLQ

The target in the test is thromboxane (TP) receptor (Homo sapiens, UniProt P21731). The test can be described thus: Human TP antagonistic action: [3H]SQ29548 binding to human washed platelets. Conditions: read-out: IC50, [3H]SQ29548 binding. On the procedure: (C) The effect of the active ingredient of the present invention (compound No. 7) on a thromboxane (TP) receptor was measured as compared with the thromboxane agonist U44069 as a positive control drug.
The antagonistic action of the test drug on the [^3H]SQ29548 binding to human washed platelets was investigated on the basis of a documented method (J. Pharmacol. Exp. Ther., vol. 245, pp. 786-792, 1988).

Structures are written as SMILES.

For `CCCCC[C@H](O)/C=C/[C@H]1[C@@H]2CO[C@@H](C2)[C@@H]1C/C=C\CCCC(=O)O`, the IC50 amounted to 2.4 µM.

As usually defined, the IC50 is the concentration needed to halve the response being measured.
